The results in this text go back to ChEMBL document CHEMBL1146292, “Dual serotonin transporter/histamine H3 ligands: Optimization of the H3 pharmacophore” (Bioorg Med Chem Lett, 2007).

By UniProt entry, the sequences of proteins in these tests, tags left out. Where a name states a change or a piece, a line headed by the entry shows the natural chain unless it says otherwise.
UniProt Q9Y5N1: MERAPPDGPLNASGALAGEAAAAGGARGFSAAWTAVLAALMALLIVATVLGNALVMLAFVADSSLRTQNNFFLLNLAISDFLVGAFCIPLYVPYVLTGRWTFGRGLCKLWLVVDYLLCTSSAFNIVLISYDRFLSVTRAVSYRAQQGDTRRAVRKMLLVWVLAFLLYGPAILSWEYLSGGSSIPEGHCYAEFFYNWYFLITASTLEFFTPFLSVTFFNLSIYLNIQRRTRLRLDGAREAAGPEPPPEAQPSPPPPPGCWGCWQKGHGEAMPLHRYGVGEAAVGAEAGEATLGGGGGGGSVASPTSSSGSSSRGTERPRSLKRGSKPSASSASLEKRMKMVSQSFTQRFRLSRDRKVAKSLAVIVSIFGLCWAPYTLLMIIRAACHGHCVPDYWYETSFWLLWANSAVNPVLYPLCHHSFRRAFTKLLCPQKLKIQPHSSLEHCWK
UniProt P31652, whole entry: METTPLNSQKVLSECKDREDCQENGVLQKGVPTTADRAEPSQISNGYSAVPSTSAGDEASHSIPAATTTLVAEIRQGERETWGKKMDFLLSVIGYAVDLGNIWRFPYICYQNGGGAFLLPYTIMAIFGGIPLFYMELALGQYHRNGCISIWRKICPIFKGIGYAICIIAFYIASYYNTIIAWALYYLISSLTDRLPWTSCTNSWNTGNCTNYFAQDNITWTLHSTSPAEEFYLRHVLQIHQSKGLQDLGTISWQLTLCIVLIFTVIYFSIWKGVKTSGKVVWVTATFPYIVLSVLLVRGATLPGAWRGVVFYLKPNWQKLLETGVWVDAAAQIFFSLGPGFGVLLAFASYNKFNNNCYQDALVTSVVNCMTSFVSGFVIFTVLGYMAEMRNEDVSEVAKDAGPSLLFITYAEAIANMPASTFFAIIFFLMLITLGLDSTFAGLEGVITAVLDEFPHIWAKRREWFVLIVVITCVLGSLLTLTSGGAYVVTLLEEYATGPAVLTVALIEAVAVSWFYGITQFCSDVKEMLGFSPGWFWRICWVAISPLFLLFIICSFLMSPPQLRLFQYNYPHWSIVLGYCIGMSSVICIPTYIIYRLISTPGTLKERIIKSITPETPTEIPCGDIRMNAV

A word on the Ki: it is the dissociation constant of the complex between target and ligand, obtained from inhibition or displacement. Lower therefore signals a stronger hold on the target.

In one assay the target is Histamine H3 receptor (Homo sapiens, UniProt Q9Y5N1). The assay is described as follows: Binding affinity to human histamine H3 receptor. In a few lines:
(§1)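 Means of at least three independent experiments, each run in triplicate; standard error of the mean reported.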

In assay [1] the target is Sodium-dependent serotonin transporter (Rattus norvegicus, UniProt P31652). Description: Binding affinity to rat SERT. In outline:
as §1

Regarding `COc1ccc(C2CN(C)Cc3cc(OCCCN4CCC(F)CC4)ccc32)cc1` (stereo not drawn), on Histamine H3 receptor, the Ki was determined as 2 nM.

Compound `COc1ccc(C2CN(C)Cc3cc(OCCCN4CCCCC4)ccc32)cc1` (stereo not drawn) gave a Ki in assay [1] of 2 nM.

The compound `COc1ccc(C2CN(C)Cc3cc(OCCCN4CCCC(F)(F)C4)ccc32)cc1` (stereo not drawn) yielded a Ki on Histamine H3 receptor of 14 nM.
